Screens deposited in PubChem by National Center for Advancing Translational Sciences (NCATS).
miR-21 FLuc – raises the signal of a miR-21 reporter; HeLa miR-21 FLuc reporter, luciferase, 48 h; Potency, µM (top dose mostly 38.3 µM), for inactives: at the highest dose reporter change, positive = more light; AID 2288; 340,000 tested, under 10 active; active = well fitted rising curve with a large enough effect; inconclusive = small, poorly fitted or top-dose-only effect; inactive = no such curve, though single readings can be large or run the other way;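 note: % of control where 0% means no effect; miR-21 action dims this reporter so a rising signal means less miR-21 action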
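HeLa miR-21-FLuc reporter line, endogenous miR-21; 2000 cells/well in DMEM/10% FBS; compound titration up to ~40uM final, 48 h, 37 degree Celsius; luciferase detection reagent, 15 min lysis, CCD luminescence.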
Nrf2 inh – blocks Nrf2 signaling; A549 ARE-Fluc reporter, luciferase luminescence, 18-24 h; Potency, µM (doses to about 46 µM), for the others: top-dose activity change, negative = inhibition, actives largely listed as inhibitors; 360,000 tested, 2.1% active; AID 504444; also: potency is read from the fitted curve at half-maximal effect; % is scaled to controls: 0 for no effect and ±100 for the full control effect; nearly all actives have a fitted effect of over 60% in size
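Concentration-response testing used A549 ARE_Fluc cells at 5000 cells/well. Following an 18-24 h compound incubation, viability was read by fluorescence (Ex 405/Em 525) and luciferase output by luminescence.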
ClpP mod – qHTS Assay for Activators of ClpP; 340,000 tested, 1.9% active; Potency, µM (top dose mostly 57.5 µM), without a hit: at the top dose activity change, negative = active; ATP-dependent Clp protease proteolytic subunit (Bacillus subtilis (strain 168)), P80244; AID 651965, 2013; purified B. subtilis ClpP, FRET peptide cleavage, 20 min; active = well fitted falling curve with a large enough effect; inconclusive = small, poorly fitted or top-dose-only effect; inactive = no such curve, though single readings can be large or run the other way; also: potency is read from the fitted curve at half-maximal effect; the source files actives as falling curves though it sought activators and does not explain the sign; nearly all actives have a fitted effect of over 65% in size
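FRET quenching reversal measured ClpP activation: 10 microg/mL B. subtilis ClpP at pH 8 with the FRET-FV decapeptide, read at 430 nm after 320 nm excitation. The 20-min minus 0-min signal was scaled between DMSO/no-enzyme wells and ADEP (5.8 microM final).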
A549 viability – kills or reduces viability of A549 cells in Nrf2 counter-screen. Potency, µM (titrated, usually from 46 µM), for inactives: at the highest dose activity change, negative = cytotoxicity, hits mostly inhibitors. 390,000 tested, 0.16% active. A549 ARE-Fluc cells, CellTiter-Fluor viability, 18-24 h. AID 504648; also: potency is read from the fitted curve at half-maximal effect; % is scaled to controls: 0 for no effect and ±100 for the full control effect
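Cytotoxicity counterscreen: CellTiter-Fluor fluorescence was measured in A549 ARE_Fluc cells after 18-24 h of compound exposure in a concentration series. The subsequent BugLite luminescent read reports ARE-luciferase activity.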
TCR act – activates T cell receptor signaling; Potency, µM (titrated, usually from 9.22 µM), without a hit: top-dose activation of IL-2 secretion, most hits filed as activators; 330,000 tested, under 10 active; primary human leukocytes, anti-CD3, IL-2 HTRF, 48 h; AID 504894; also: % of control where 0% means no effect
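Readout: HTRF IL-2, Eu-cryptate/d2 antibody pair, 320nm excitation, 665nm emission. Stimulus: a-CD3 beads, no co-stimulation. Cells: primary human leukocytes. Exposure: 48 hr with compound.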
Nrf2 activator – Nrf2 pathway activation | 410,000 tested, 0.31% active | AID 624171 | AREc32 ARE-luciferase reporter (MCF7-derived line), luminescence, 24 h | Potency, µM (doses to about 46.1 µM), for inactives: at the highest dose activation, most hits filed as activators; also: potency is read from the fitted curve at half-maximal effect; % of control where 0% means no effect; nearly all actives have a fitted effect of over 65% in size
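AREc32 cells carrying an ARE-driven firefly luciferase reporter were seeded at 1000 cells/well in OPTI-MEM with 5% FBS, then exposed to compound for 24 hr at 37 deg C. Luminescence was read with Steady-Glo after 30 min at RT.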
* hit, by the source's call; ? = inconclusive; . = not tested or not shown; ! = not confirmed by another sample; [ ] = another dose, or the depositor's remark. Only some compounds are listed: those with a hit (about 3.7% of all), similar ones and a draw of the others. Unless noted, calls follow the shape of the dose curve; as a rule, active = well fitted curve in the direction sought with a large enough effect; inconclusive = small, poorly fitted or top-dose-only effect, or another doubt; inactive = no such curve, though single readings can be large; an effect the other way counts as inactive or inconclusive.

Under each structure: miR-21 FLuc, Nrf2 inh, ClpP mod, A549 viability, TCR act, Nrf2 activator
- O=C(NC1CCCCC1)C(c1ccccc1)N1CCC2(CC1)OCCO2 (stereo unspecified)
    2.8%, -4.8%, -1.5%, -2.6%, -1.0%, -0.5%
- CC(C)c1ccc(NC(=O)C(c2ccccc2)N2CCC3(CC2)OCCO3)cc1 (stereo unspecified)
    -10.0%, 14.6µM*, 0.7%, -23.2%, -75.8%, 0.1%
- CCC1(CC)NC(=S)NC1=S
    ., -2.6%, 28.2µM*, -8.4%, 7.1%, -0.8%
- CC1(C)NC(=S)NC1=S
    ., -18.0%, -1.9%, -0.4%, 0.9%, -0.6%
- O=[N+]([O-])c1nn(-c2ccccc2)n(O)c1=NC1CCN(Cc2ccccc2)CC1
    1.5%, 12.5%, ., 18.4µM*, 0.1%, -0.8%
- O=[N+]([O-])c1nn(-c2ccc3c(c2)OCCO3)n(O)c1=NC1CCN(Cc2ccccc2)CC1
    -19.4%, 12.1%, 1.4%, -11.0%, 0.1%, -0.7%
- O=c1oc(-c2ccccc2)nc2sc3c(c12)CCC3
    -1.6%, ?, 9.0%, -10.3%, -1.7%[46.1 µM], 6.8%
- Nc1nc(-c2ccccc2)nc2sc3c(c12)CCCC3
    -44.8%, ?, 31.6µM*, -12.2%, 1.2%[46.1 µM], 8.7%
- C/C(=N\NC(=O)c1c(Cl)cnn1C)c1cccnc1
    -40.6%, ?, -0.2%, 0.2%, -2.7%, 0.2%
- COc1cccc(C2c3c(ncn(-c4ccccc4)c3=N)Oc3ccc4ccccc4c32)c1 (stereo unspecified)
    ., 14.6µM*!, ., 14.6µM*!, ., .
- COc1ccccc1C1c2c(ncn(-c3ccccc3)c2=N)Oc2ccc3ccccc3c21 (stereo unspecified)
    ., 23.1µM*, ., 20.6µM*, ., .
- N=c1c2c(ncn1-c1ccccc1)Oc1ccc3ccccc3c1C2c1ccc2c(c1)OCO2 (stereo unspecified)
    ., 20.6µM*, ., 14.6µM*, ., .
- COc1cccc(C2c3c(ncn(-c4cccc(OC)c4)c3=N)Oc3ccc4ccccc4c32)c1 (stereo unspecified)
    ., -1.8%, ., -11.6%, ., .
- COc1cccc(C2c3c(ncn(-c4ccccc4OC)c3=N)Oc3ccc4ccccc4c32)c1 (stereo unspecified)
    ., -26.0%, ., ?, ., .
- CNc1c(Br)cc(C=O)cc1Br
    ., ., -4.3%, ., ., .

Just Nrf2 inh, for some of the entries so far:
| SMILES | Nrf2 inh |
| --- | --- |
| COc1ccccc1C1c2c(ncn(-c3ccccc3)c2=N)Oc2ccc3ccccc3c21 (stereo unspecified) | 23.1µM* |
| N=c1c2c(ncn1-c1ccccc1)Oc1ccc3ccccc3c1C2c1ccc2c(c1)OCO2 (stereo unspecified) | 20.6µM* |

Back to the main list, repeating the two entries before the break.
Under each structure: miR-21 FLuc, Nrf2 inh, ClpP mod, A549 viability, TCR act, Nrf2 activator
- COc1cccc(C2c3c(ncn(-c4ccccc4OC)c3=N)Oc3ccc4ccccc4c32)c1 (stereo unspecified)
    ., -26.0%, ., ?, ., .
- CNc1c(Br)cc(C=O)cc1Br
    ., ., -4.3%, ., ., .
- CCC(OCC(O)CN1CCCCC1)c1ccccc1 (stereo unspecified)
    -4.2%, 9.9%, 1.4%, 1.6%, -3.5%, -1.0%
- Cc1ccc2cccc(SCC(=O)NCC#N)c2n1
    -2.7%, 1.5%, 28.2µM*, 2.0%, 1.0%[46.1 µM], 2.3%
- Nc1cccc(-c2nc3ccc(N)cc3s2)c1
    19.3%, 3.6%, 14.1µM*, -14.3%, -14.8%, -0.4%
- COc1cccc(-c2nc3ccccc3s2)c1
    -38.4%, ., 28.2µM*, 13.1%, 4.4%, ?
- Nc1ccccc1-c1nc2ccccc2s1
    -65.0%, ?, ., -3.7%, 2.4%, ?
- c1coc(-c2nc3ccccc3s2)c1
    ., ?, ., 0.2%, -4.2%, 11.2µM*
- COc1ccc(-c2nc3ccccc3s2)cc1
    1.8%, ?, 4.4%, 0.0%, -1.3%, 3.6%
- O=C(c1ccc(F)cc1)N1CCN(S(=O)(=O)c2ccc(Br)cc2)CC1
    0.6%, 7.2%, 0.0%, 0.3%, 10.1%, 4.2%
- CC(=O)Nc1cccc(OCc2cccc(C3Nc4ccccc4C(=O)N3Cc3ccco3)c2)c1 (stereo unspecified)
    ., ?, ., -15.2%, ., .
- CCCCN1CC[C@H]2C=CC[C@@H](C(=O)NCc3cccnc3)[C@H]2C1=O
    ., ., 0.0%, ., ., .
- Cc1oc(-c2cccc(Br)c2)nc1Cn1c(SCc2cccc(F)c2)nc2cccnc21
    1.5%, 13µM*, ?, -24.8%, ., -0.3%
- CCN1CCN(c2ccc(N3CCN(S(=O)(=O)c4ccc(C)c([N+](=O)[O-])c4)CC3)nn2)CC1
    ., 0.4%, -3.8%, 3.8%, 1.5%, -0.5%
- Cc1ccc(CNC(=O)c2cccn2-c2nnc(N3CCCCC3)s2)cc1
    12.3%, 5.6%, -4.9%, 4.0%, ., 4.6%
- C[C@H](CO)N1C[C@H](C)[C@@H](CN(C)Cc2ccc(Oc3ccccc3)cc2)Oc2c(NC(=O)C3CC3)cccc2C1=O
    ., 23.1µM*, -3.1%, -16.9%, 3.9%, -4.8%
- C[C@H](CO)N1C[C@H](C)[C@@H](CN(C)C(=O)Nc2ccc(C(F)(F)F)cc2)Oc2c(NS(=O)(=O)c3cccs3)cccc2C1=O
    ., 12.9%, 0.9%, -3.9%, -0.6%, -0.4%
- Cc1ccc(S(=O)(=O)Nc2cccc3c2O[C@H](CN(C)C(=O)Nc2ccc(C(F)(F)F)cc2)[C@@H](C)CN([C@H](C)CO)C3=O)cc1
    ., 18.4µM*, 4.1%, -17.9%, -0.5%, 3.8%
- C[C@H](CO)N1C[C@H](C)[C@@H](CN(C)C(=O)Nc2ccc(C(F)(F)F)cc2)Oc2c(NC(=O)Nc3ccc(C(F)(F)F)cc3)cccc2C1=O
    ., ?, 4.2%, ?, -4.0%, -3.7%
- C[C@H]1CN([C@@H](C)CO)C(=O)c2cccc(NC(=O)Nc3ccc(C(F)(F)F)cc3)c2O[C@@H]1CN(C)C(=O)Nc1ccc(F)cc1
    ., 16.4µM*, 3.5%, ?, 10.4%, -5.6%
- CCCCCCNc1ccc(/C=C/c2ccnc3ccccc23)cc1
    ., ., -2.2%, ., ., .
- Cc1noc(CN(C)c2ncnc3ccc(-c4ccc5c(c4)OCO5)cc23)n1
    ., 9.8%, ., 4.0%, ., .
- COc1ccc(-c2nc3ccc(Cl)cc3c(=O)n2Cc2ccccc2)cc1COc1ccc(NC(C)=O)cc1
    ., -7.2%, ., 5.9%, ., .
- CCCNC(=O)CN1CCN(c2cc3ccccc3c(Cl)n2)CC1
    0.8%, -0.2%, ., 0.4%, -4.3%, 3.8%
- Cc1cc(C)c(S(N)(=O)=O)c(C)c1N(C)S(=O)(=O)c1ccc(Cl)cc1
    -0.7%, ?, -3.3%, 0.1%, -2.9%, 2.5%
- O=[N+]([O-])c1ccc(N2CCN(Cc3cccc([N+](=O)[O-])c3)CC2)cc1
    25.9%, 20.6µM*, ., ?, -2.1%, 1.2%[9.22 µM]
- COc1cc(CN2CCN(Cc3ccc([N+](=O)[O-])cc3)CC2)c([N+](=O)[O-])cc1OC
    16.5%, 20.6µM*, -1.3%, -4.3%, 12.7%, 2.6%
- COc1ccc(/C=C2/CCCC(CN(C)C)C2=O)cc1 (stereo unspecified)
    ., 7.8%, -1.1%, -0.1%, -2.6%, 10µM*
- CN(C)CC1CCC/C(=C/c2ccc(Cl)cc2)C1=O (stereo unspecified)
    ., 14.0%, 1.6%, -6.3%, -0.3%, 15.4%
- CC1(C)Cc2ccccc2C(NNC(=O)c2cccnc2)=N1
    -0.7%, 7.5%, 17.8µM*, -5.9%, -3.4%[46.1 µM], -0.5%
- CC1(C)Cc2ccccc2C(NNC(=O)c2ccncc2)=N1
    3.2%, -6.7%, 2.9%, -4.1%, -5.2%, 0.4%
